{
  "sequences": {"note": "The chains behind the UniProt entries cited, without tags or fusion partners. Residues count along the entry.", "UniProt A0A0M4FJ81, 40-322": "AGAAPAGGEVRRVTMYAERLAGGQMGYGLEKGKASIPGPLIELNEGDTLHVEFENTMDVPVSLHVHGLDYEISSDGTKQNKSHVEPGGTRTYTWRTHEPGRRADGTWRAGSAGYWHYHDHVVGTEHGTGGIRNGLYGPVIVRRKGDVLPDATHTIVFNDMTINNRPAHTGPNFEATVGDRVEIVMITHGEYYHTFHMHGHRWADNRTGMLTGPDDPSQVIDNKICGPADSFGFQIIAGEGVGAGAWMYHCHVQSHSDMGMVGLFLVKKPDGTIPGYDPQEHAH"},
  "source": "paper PMC6650940",
  "about": "“Investigations of Accessibility of T2/T3 Copper Center of Two-Domain Laccase from Streptomyces griseoflavus Ac-993” (International Journal of Molecular Sciences, 2019)",
  "biological_target": "SgfSL wt (two-domain laccase, Streptomyces griseoflavus Small Laccase) (Streptomyces griseoflavus, UniProt A0A0M4FJ81)",
  "experiment": "inhibition of ABTS oxidation",
  "settings": "ABTS as substrate, pH 4.0, 30 °C",
  "data": [
    {"molecule": "[N-]=[N+]=N", "values": [
      {"measurement": "% residual activity at 10 mM NaN3", "result": 53.9, "unit": "%"}
    ]}
  ]
}
